Source: patent publication US10017827B2, “Herbicide-resistant sunflower plants with multiple herbicide resistant alleles of AHASL1 and methods of use” (BASF AGROCHEMICAL PRODUCTS B.V., priority 2007, dated 2018)

Tests used:
[1] = system: A205V sunflower genotypes (mean of H1, L1, L2); assay: Greenhouse whole-plant response to imazapyr; assay type: in vivo; conditions: 14 DAT
From the text: (§1) Experiment was arranged as a randomized block design with a full factorial (sunflower line×treatment) arrangement of treatments and 10 replications.

[2] = system: sunflower hybrid H1 (L1 × L2, A205V); assay: Greenhouse whole-plant response to imazapyr; assay type: in vivo; conditions: 14 DAT
From the text: as §1

[3] = system: sunflower hybrid H3 (L3 × L2, A205V + A122T); assay: Greenhouse whole-plant response to imazapyr; assay type: in vivo; conditions: 14 DAT
From the text: as §1

[4] = system: sunflower hybrid H4 (L1 × L4, A205V + A122T); assay: Greenhouse whole-plant response to imazapyr; assay type: in vivo; conditions: 14 DAT
From the text: as §1

[5] = system: sunflower line L1 (A205V); assay: Greenhouse whole-plant response to imazapyr; assay type: in vivo; conditions: 14 DAT
From the text: as §1

[6] = system: sunflower line L2 (A205V); assay: Greenhouse whole-plant response to imazapyr; assay type: in vivo; conditions: 14 DAT
From the text: as §1

[7] = system: sunflower hybrid H5 (L3 × WT, 122/Wild type); conditions: in vivo
[8] = system: sunflower line BTI-OL-M1511; conditions: in vivo
[9] = system: sunflower line BTI-OL-M1709; conditions: in vivo
[10] = system: sunflower line BTI-OL-2201; conditions: in vivo
[11] = system: sunflower line VB141 (high oleic); conditions: 160 gr/ha at V4
[12] = system: sunflower line HA445 (high oleic); conditions: 160 gr/ha at V4
[13] = system: sunflower line OB712 (high oleic)
[14] = system: sunflower line B770 (conventional); conditions: 160 gr/ha at V4
[15] = system: sunflower line BTK112 (conventional)
[16] = system: AHAS enzyme, A122T/A205V heterozygous hybrid (IA9 × R733); conditions: 100 μM imazapyr, Set 1
[17] = system: heterozygous A205V sunflower entries; conditions: 160 g ai/ha imazapyr, 21 DAT
[18] = system: sunflower hybrids carrying at least one allele A122T (A122T/A122T, A122T/A205V, A122/WT); conditions: hybrids with at least one A122T allele; 160 g ai/ha at R1; 14 DAT
[19] = system: sunflower hybrids A205V/A205V and A205V/WT; conditions: 160 g ai/ha at R1, 14 DAT
[20] = system: AHAS enzyme, A205V homozygous (B7imi (IMISUN1)); conditions: 50 μM imazamox, Set 2

CC(C)C1(C)N=C(c2ncccc2C(=O)O)NC1=O (centres unmarked) [imazapyr]
Phytotoxicity Index (0-9) ([1]; 0.5x (40 g ai/ha)): 0 | Phytotoxicity Index (0-9) ([1]; 1x (80 g ai/ha)): 0 | Phytotoxicity Index (0-9) ([2]; 0.5x (40 g ai/ha)): 0 | Phytotoxicity Index (0-9) ([2]; 1x (80 g ai/ha)): 0 | Phytotoxicity Index (0-9) ([2]; 4x (320 g ai/ha)): 8.0 | Phytotoxicity Index (0-9) ([2]; 6x (480 g ai/ha)): 9.0 | Phytotoxicity Index (0-9) ([3]; 0.5x (40 g ai/ha)): 0.5 | Phytotoxicity Index (0-9) ([3]; 1x (80 g ai/ha)): 0.5 | biomass accumulation, % of untreated ([3]; 1x (80 g ai/ha)): 100.0% | Phytotoxicity Index (0-9) ([3]; 2x (160 g ai/ha)): 0.5 | Phytotoxicity Index (0-9) ([3]; 3x (240 g ai/ha)): 0.5 | Phytotoxicity Index (0-9) ([3]; 4x (320 g ai/ha)): 0.5 | Phytotoxicity Index (0-9) ([3]; 5x (400 g ai/ha)): 0.6 | Phytotoxicity Index (0-9) ([3]; 6x (480 g ai/ha)): 1.0 | Phytotoxicity Index (0-9) ([4]; 0.5x (40 g ai/ha)): 0.0 | plant height, % of untreated ([4]; 0.5x (40 g ai/ha)): 100.0% | Phytotoxicity Index (0-9) ([4]; 1x (80 g ai/ha)): 0.0 | Phytotoxicity Index (0-9) ([4]; 2x (160 g ai/ha)): 0.0 | plant height, % of untreated ([4]; 2x (160 g ai/ha)): 100.0% | Phytotoxicity Index (0-9) ([4]; 3x (240 g ai/ha)): 0.0 | plant height, % of untreated ([4]; 3x (240 g ai/ha)): 100.0% | Phytotoxicity Index (0-9) ([4]; 4x (320 g ai/ha)): 0.0 | Phytotoxicity Index (0-9) ([4]; 5x (400 g ai/ha)): 0.2 | Phytotoxicity Index (0-9) ([4]; 6x (480 g ai/ha)): 0.0 | Phytotoxicity Index (0-9) ([5]; 0.5x (40 g ai/ha)): 0 | plant height, % of untreated ([5]; 0.5x (40 g ai/ha)): 100.0% | Phytotoxicity Index (0-9) ([5]; 1x (80 g ai/ha)): 0 | plant height, % of untreated ([5]; 1x (80 g ai/ha)): 100.0% | plant height, % of untreated ([5]; 3x (240 g ai/ha)): 50.0% | Phytotoxicity Index (0-9) ([6]; 0.5x (40 g ai/ha)): 0 | Phytotoxicity Index (0-9) ([6]; 1x (80 g ai/ha)): 0 | Mean Phytotoxicity Index (0-50) [7]: 5 | Mean Phytotoxicity Index (PI, 0-9) [8]: 0.5 | outcome of herbicide treatment [8]: resistance level similar to that observed in the resistant line GM40 | Mean Phytotoxicity Index (PI, 0-9) [9]: 0.2 | outcome of herbicide treatment [9]: resistance level similar to that observed in the resistant line GM40 | Mean Phytotoxicity Index (PI, 0-9) [10]: 0.2 | outcome of herbicide treatment [10]: resistance level similar to that observed in the resistant line GM40 | outcome of herbicide treatment [11]: killed | outcome of herbicide treatment [12]: killed | outcome of herbicide treatment ([13]; OB712, 160 gr/ha at V4): killed | Mean Phytotoxicity Index (PI, 0-9) ([13]; in vivo): 9 | outcome of herbicide treatment [14]: killed | outcome of herbicide treatment ([15]; BTK112, 160 gr/ha at V4): killed | Mean Phytotoxicity Index (PI, 0-9) ([15]; in vivo): 9 | AHAS activity, % of untreated control [16]: 60% | phytotoxicity [17]: 20-43% | Phytotoxicity Index (0-50) [18]: less than 11.7 | Phytotoxicity Index (0-50) [19]: greater than 35

COCc1cnc(C2=NC(C)(C(C)C)C(=O)N2)c(C(=O)O)c1 (centres unmarked) [imazamox]
AHAS activity, % of untreated control [20]: 30%
